# Data taken from ChEMBL document CHEMBL1156244, “Recent advances in the identification of gamma-secretase inhibitors to clinically test the Abeta oligomer hypothesis of Alzheimer's disease” (J Med Chem, 2009).
# Assays:
# [1] = Selectivity for gamma secretase-mediated amyloid beta (1 to 40) production over gamma secretase-mediated notch processing
# [2] = Ratio of drug level in plasma to CSF in healthy human at 600 mg/kg, po administered as single dose; assay type: ADME, organism-based; design: dose 600 mg/kg, route oral; settings: in vivo
# [3] = AUC in brain of patient with Alzheimer's disease at 450 mg/kg; assay type: ADME, organism-based; design: dose 450 mg/kg; settings: human
# [4] = tested on: Homo sapiens; assay: AUC in plasma of patient with Alzheimer's disease at 450 mg/kg
compound,measurement,setting,value
O=S(=O)(N[C@H](CO)C(C(F)(F)F)C(F)(F)F)c1ccc(Cl)s1 [BEGACESTAT],Selectivity ratio,[1],14
same,Ratio,[2],10
same,AUC,[3],2330 ng·h/mL
same,AUC,[4],2330 ng·h/mL
